Measurements taken from the Kinase Knowledgebase extract (Sharma et al. 2016).
pIC50: −log10 of the molar value.

Amino acid sequences for entries named in this document (tags omitted). A change or cut given only in a name is not applied to a line headed by its entry.
UniProt P42338: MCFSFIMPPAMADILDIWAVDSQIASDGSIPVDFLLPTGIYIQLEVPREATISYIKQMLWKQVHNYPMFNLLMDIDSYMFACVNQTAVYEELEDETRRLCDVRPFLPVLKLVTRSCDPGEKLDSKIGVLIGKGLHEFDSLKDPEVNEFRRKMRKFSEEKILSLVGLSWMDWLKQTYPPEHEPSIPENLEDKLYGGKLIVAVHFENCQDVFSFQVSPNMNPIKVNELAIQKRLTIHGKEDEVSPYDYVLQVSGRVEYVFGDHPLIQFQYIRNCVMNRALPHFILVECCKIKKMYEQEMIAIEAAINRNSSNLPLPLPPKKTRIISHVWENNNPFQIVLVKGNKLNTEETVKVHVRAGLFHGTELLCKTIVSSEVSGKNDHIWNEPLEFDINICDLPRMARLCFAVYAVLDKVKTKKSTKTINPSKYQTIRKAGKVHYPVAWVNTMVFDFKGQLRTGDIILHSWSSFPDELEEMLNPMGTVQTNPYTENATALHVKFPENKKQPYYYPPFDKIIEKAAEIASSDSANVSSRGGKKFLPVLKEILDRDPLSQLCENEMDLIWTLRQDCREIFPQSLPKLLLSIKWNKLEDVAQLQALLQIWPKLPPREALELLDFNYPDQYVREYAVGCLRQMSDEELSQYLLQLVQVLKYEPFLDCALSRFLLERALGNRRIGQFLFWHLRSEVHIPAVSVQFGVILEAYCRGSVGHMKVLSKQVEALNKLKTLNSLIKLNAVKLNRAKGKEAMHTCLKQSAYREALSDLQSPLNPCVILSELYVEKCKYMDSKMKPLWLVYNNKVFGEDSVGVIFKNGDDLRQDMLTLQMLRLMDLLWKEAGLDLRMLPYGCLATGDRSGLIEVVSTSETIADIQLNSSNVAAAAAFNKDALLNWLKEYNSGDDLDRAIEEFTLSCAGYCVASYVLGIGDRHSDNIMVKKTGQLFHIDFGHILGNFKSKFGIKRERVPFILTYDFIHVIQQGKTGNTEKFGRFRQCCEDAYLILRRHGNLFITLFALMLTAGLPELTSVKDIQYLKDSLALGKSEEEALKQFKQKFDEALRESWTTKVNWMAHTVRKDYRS

Molecular target: PIK3CB;PIK3CA (UniProt P42338)
Experiment: PI3-Kinase alpha/beta Inhibition

pIC50: 5.82 to 6.00
Compound: O=c1cc(N2CCOCC2)oc2c(-c3ccccc3)cccc12
